## Binding of CDR-mutated scFvs to a peptide of the spike HR2 region

All variants were tested on one target, the spike HR2 peptide PDVDLGDISGINAS (SARS-CoV-2).

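The parent was found by panning a naive human phage display library on the peptide. Library AAYL50 holds single substitutions and randomly drawn double and triple substitutions in the CDRs. The scFvs were displayed on barcoded MATa yeast, the peptide on MATalpha yeast. The frequency of each diploid, read from paired DNA barcodes, reflects how well the two displayed proteins bind. Scores were corrected for input abundance and mapped to Kd with protein pairs of known affinity run in the same pool. Mating was done three times.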

Parent scFv Ab-14: VH joined to VL by a 15-residue (Gly4Ser)3 linker. Changes lie in the light chain CDRs alone.
VH: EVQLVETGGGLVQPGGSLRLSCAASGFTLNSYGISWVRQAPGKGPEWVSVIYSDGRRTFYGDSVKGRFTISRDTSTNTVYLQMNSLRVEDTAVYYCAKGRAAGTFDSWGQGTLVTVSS
VL: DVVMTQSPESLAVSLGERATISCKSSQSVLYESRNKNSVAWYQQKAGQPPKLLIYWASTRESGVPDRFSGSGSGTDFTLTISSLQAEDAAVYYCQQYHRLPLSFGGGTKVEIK

The parent's light chain CDRs are KSSQSVLYESRNKNSVA, WASTRES, QQYHRLPLS; each variant's own CDRs replace them letter for letter. Affinities are written as log10 Kd with Kd in nM; a lower number is a better binder. The mean shown is taken over the replicates in which the pair was detected. A pair that was not seen in that replicate is written "ND"; this usually means weak binding, but a binder can also be missed. Background: pairings of library AAYL50 with three empty control strains gave a value in 18% of cases (median 4.19, 5th percentile 2.99). Values in that range, when seen in few replicates, are hard to tell from nonspecific mating. The control count says in how many pairings with the empty strains this scFv gave a signal, with their mean in brackets.

| CDR-L1 | CDR-L2 | CDR-L3 | replicates, log10 nM | log10 Kd (nM), mean | empty controls |
|---|---|---|---|---|---|
| KSEQSVLYEFRNKNSVA | WASTRES | QQYHRLALS | ND ND ND | ND | 1 of 9 (3.44) |
| KSSQSVPYESRNKNSEA | WASTRES | QQYHRLWLS | ND ND ND | ND | 3 of 9 (3.97) |
| KSSQLVLYESRNKNSVA | WASTRES | QQYHWLPIS | ND ND ND | ND | 2 of 9 (3.18) |
| KSSQSVLYESRNKNIVD | WASTREL | QQYHRLPLS | ND 2.90 ND | 2.90 | 0 of 9 |
| KSSQSVLHESRNKNSRA | WYSTRES | QQYHRLPLS | 5.10 4.36 ND | 4.73 | 4 of 9 (4.66) |
| WSSQSVLYESRNKNSVQ | WASTRES | QQYHRMPLS | ND ND ND | ND | 0 of 9 |
| KRSQFCLYESRNKNSVA | WASTRES | QQYHRLPLS | 1.36 1.55 2.18 | 1.69 | 2 of 9 (2.97) |
| KSSQSVLYESRNQNSVW | WASTRDS | QQYHRLPLS | ND ND ND | ND | 0 of 9 |
| KSSQCVLYESRNKNSVA | WASTRVS | QQYHRLPLR | 2.47 2.16 2.22 | 2.28 | 3 of 9 (3.75) |
| KSSQSVLKESRNKNSVA | HASTRES | QQYHRLPES | 3.09 ND 3.35 | 3.22 | 0 of 9 |
| KSSQSVLYESRNVNSVA | WASTRES | QQYHRLPMS | 0.58 0.76 0.73 | 0.69 | 1 of 9 (3.50) |
| KSSQSVLMESRNLNSVL | WASTRES | QQYHRLPLS | ND 2.23 ND | 2.23 | 0 of 9 |
| KSSQSVLYEIRNKNSVA | WASTRES | QQWHRLPLP | ND ND ND | ND | 0 of 9 |
| KSSVSVLYEPRNKNSVA | WASTRES | QQYHRLPLS | 0.74 0.82 0.95 | 0.84 | 1 of 9 (5.14) |
| KSSASVLYESRNKNSVA | WASTRES | PQYHRLFLS | 2.74 2.37 2.43 | 2.51 | 3 of 9 (3.34) |
| KSSQSFLYESRNKNSNM | WASTRES | QQYHRLPLS | ND 2.70 5.46 | 4.08 | 3 of 9 (4.09) |
| KSSQSVLYEGRNNNSVA | WASTRES | QQYHRLPCS | 0.44 0.78 0.53 | 0.58 | 3 of 9 (4.39) |
| KSVQSVLYESRHKNSVA | WASTRES | QQYHRRPLS | ND ND ND | ND | 0 of 9 |
| KSSQSVLYESRQCNSVA | AASTRES | QQYHRLPLS | 0.15 0.43 0.15 | 0.24 | 1 of 9 (4.54) |
| KSSQSVLYESRNKNSKA | WASTRES | VQKHRLPLS | ND ND ND | ND | 2 of 9 (3.85) |
| KSSQSVLYESRNVQSVA | TASTRES | QQYHRLPLS | ND ND ND | ND | 0 of 9 |
| LSIQSVLYESRNKNSVK | WASTRES | QQYHRLPLS | ND ND ND | ND | 1 of 9 (3.70) |
| KSSQSVSYESRNKNSVA | WASTRES | QQYHRLPLN | 0.74 1.64 1.21 | 1.20 | 0 of 9 |
| KSSQSVLYQSRNKNSVW | WAWTRES | QQYHRLPLS | ND ND ND | ND | 0 of 9 |
| KSSQSVLYESRFKNSVA | WASTWES | QQYHRLPGS | ND 4.21 6.41 | 5.31 | 3 of 9 (4.53) |
| KSSQSVLYEHRNKNHVA | WASTRIS | QQYHRLPLS | 2.89 3.22 4.65 | 3.59 | 2 of 9 (4.71) |
| KSSQSFLYESRNDNVVA | WASTRES | QQYHRLPLS | ND ND ND | ND | 1 of 9 (4.66) |
| KSSQSVLYESRNKNSVA | WGSTREN | QQYHKLPLS | 0.57 0.64 0.76 | 0.66 | 0 of 9 |
| KSSQSSFYESRNKNSVA | WASTRES | SQYHRLPLS | ND ND ND | ND | 0 of 9 |
| QSSPSVLYESRDKNSVA | WASTRES | QQYHRLPLS | ND ND ND | ND | 1 of 9 (3.28) |
| KSSLSVLYESRNKNSVA | WASTRMS | QQYHRLPLS | 0.73 0.84 0.83 | 0.80 | 0 of 9 |
| KSSQSVTYESRNPNSMA | WASTRES | QQYHRLPLS | 1.46 1.27 1.80 | 1.51 | 0 of 9 |
| KSSQSVLGESRNKNSVA | WASTRES | QQYLRLQLS | ND ND ND | ND | 0 of 9 |
| KSSQSVLAESRNKNSVA | VASTRES | QQYHRAPLS | 2.12 1.55 2.11 | 1.92 | 0 of 9 |
| KSSQSVLAESRNKNSVH | WASTRES | GQYHRLPLS | 3.18 ND ND | 3.18 | 0 of 9 |
| KSSQPVLYESRNKNSVA | RHSTRES | QQYHRLPLS | 4.02 2.30 3.42 | 3.25 | 2 of 9 (3.43) |
| KSSQSVLYEARNKNSVK | WASTRES | QQRHRLPLS | ND ND ND | ND | 0 of 9 |
| KSSQSVLYESRNKNSVA | WASTREY | QQYHRTWLS | 0.03 0.43 0.52 | 0.33 | 0 of 9 |
| KSSQDVLKEHRNKNSVA | WASTRES | QQYHRLPLS | ND ND ND | ND | 0 of 9 |
| KSSQSVCYESRNKNSVA | WASTRES | QQYHRTPLS | 0.51 1.27 0.76 | 0.85 | 0 of 9 |

Excerpt, the final 2 entries:

CDR-L1,CDR-L2,CDR-L3,"replicates, log10 nM","log10 Kd (nM), mean",empty controls
KSSQDVLKEHRNKNSVA,WASTRES,QQYHRLPLS,ND ND ND,ND,0 of 9
KSSQSVCYESRNKNSVA,WASTRES,QQYHRTPLS,0.51 1.27 0.76,0.85,0 of 9

The measurements come from Engelhart et al. 2022 (doi:10.1038/s41597-022-01779-4) through the FLAb antibody collection.